Chains of the proteins cited; added tags and fusions are not shown. A line that says so, or that is headed by a name, gives the form on record, which may keep a tag or linker.
UniProt Q14524, other isoform, or with tags, fused parts or gaps: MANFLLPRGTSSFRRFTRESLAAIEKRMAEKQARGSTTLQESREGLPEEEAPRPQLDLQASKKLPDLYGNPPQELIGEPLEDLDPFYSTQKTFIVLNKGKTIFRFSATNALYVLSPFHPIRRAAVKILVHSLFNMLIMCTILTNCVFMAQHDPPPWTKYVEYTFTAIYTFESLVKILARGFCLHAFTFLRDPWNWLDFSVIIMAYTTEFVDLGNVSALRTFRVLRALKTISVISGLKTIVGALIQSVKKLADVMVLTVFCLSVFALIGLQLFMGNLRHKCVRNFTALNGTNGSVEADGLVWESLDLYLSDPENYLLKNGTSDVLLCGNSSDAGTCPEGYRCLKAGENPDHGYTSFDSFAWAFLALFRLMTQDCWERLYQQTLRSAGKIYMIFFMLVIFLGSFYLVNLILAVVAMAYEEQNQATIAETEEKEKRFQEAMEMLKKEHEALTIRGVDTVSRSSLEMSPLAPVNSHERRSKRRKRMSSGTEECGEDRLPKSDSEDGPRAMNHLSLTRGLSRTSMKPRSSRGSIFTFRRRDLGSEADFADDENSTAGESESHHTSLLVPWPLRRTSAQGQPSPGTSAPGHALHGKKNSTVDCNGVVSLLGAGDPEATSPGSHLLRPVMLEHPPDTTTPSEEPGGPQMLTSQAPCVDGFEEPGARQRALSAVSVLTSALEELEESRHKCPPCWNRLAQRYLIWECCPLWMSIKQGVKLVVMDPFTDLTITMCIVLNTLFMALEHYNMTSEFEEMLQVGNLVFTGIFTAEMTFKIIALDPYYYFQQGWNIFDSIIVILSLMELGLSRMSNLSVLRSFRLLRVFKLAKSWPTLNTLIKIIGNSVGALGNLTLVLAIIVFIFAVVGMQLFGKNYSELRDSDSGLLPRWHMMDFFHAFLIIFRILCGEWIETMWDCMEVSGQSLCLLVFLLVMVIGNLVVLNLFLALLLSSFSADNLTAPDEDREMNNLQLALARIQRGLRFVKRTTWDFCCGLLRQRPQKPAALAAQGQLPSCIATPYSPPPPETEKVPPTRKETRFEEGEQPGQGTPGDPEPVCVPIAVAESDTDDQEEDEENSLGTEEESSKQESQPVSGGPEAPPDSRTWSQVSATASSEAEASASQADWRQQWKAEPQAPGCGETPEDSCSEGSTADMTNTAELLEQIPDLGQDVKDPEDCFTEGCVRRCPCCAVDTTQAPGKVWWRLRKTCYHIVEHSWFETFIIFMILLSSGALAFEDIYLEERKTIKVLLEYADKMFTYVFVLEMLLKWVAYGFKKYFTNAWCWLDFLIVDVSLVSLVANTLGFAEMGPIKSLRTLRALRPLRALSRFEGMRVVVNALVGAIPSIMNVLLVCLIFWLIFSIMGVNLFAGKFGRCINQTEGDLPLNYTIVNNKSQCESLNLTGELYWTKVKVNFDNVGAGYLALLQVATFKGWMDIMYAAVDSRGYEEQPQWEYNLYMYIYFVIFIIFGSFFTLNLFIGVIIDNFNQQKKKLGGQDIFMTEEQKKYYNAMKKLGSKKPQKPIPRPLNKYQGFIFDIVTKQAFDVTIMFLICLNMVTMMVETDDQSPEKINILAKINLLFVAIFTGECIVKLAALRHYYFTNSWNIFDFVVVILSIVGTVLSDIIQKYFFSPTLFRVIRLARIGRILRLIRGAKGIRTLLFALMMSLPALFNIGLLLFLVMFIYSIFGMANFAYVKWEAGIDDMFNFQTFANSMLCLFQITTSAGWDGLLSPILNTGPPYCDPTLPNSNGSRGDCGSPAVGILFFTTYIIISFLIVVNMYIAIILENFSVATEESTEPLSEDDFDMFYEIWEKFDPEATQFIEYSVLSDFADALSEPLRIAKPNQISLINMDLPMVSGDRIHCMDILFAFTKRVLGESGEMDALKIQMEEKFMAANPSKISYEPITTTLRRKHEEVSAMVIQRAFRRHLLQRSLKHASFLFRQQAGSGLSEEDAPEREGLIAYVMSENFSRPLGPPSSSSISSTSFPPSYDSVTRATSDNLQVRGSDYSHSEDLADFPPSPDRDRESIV

According to patent US10815229B1, “Benzenesulfonamide compounds and their use as therapeutic agents” (Xenon Pharmaceuticals Inc., priority 2016, dated 2020):

Molecular target: NaV1.5 (Homo sapiens (Human), UniProt Q14524)
Assay: Sodium Influx Assay (Flux), NaV1.5
Details: read-out: Flux NaV1.5 IC50; Trex HEK293 cells, ANG2 dye; arithmetic mean

(S)-2-fluoro-4-((1-(2-hydroxybenzyl)-pyrrolidin-3-yl)(methyDamino)-5-methyl-N-(thiazol-4-yl)benzenesulfonamide [Example 113]
IC50: 13 µM
